Earlier results as cited in US6107104A, “Modulators of anchoring protein function” (ICOS Corporation, priority 1996, dated 2000).

Legend:
[1] = human, in vivo; cited from earlier work
[2] = cited from earlier work

## IL-2: interleukin 2 given as therapy
[1]
  patients experiencing changes in mental status: Over 70%
  patients requiring intubation and mechanical ventilation: Up to 20%
  treated patients with anemia requiring transfusions: 15-20%
[2]; low dose subcutaneous or continuous infusion therapy
  response rate: 12%
[2]; metastatic renal cell carcinoma or malignant melanoma
  patients responding to therapy: 15-20%
